Data as given in US20260384421A1, “NOVEL COMPOUNDS THAT CAN BE USED AS THERAPEUTIC AGENTS” (published 2026).

Test system: AMPK (Thr172 phosphorylation) in A-549 cells
Experiment: AMPK activation assay on A-549 cells (Thr172 phosphorylation, western blot)
Conditions: 10 nM, 20 hours, Thr172 phosphorylation relative to DMSO control
Description: AMPK activation can be assessed by the levels of AMPK phosphorylation at Thr172. The APMK activating activities of compounds falling under general formula (I) were investigated by western blotting on different cancer cell lines. Access and cultivation of the respective cell lines are as described above. To this end, A-549, HEP-G2, and HCT-116 cells were seeded into 6-well culture plates (Cyto-One®, #CC7682-7506) in a total volume of 2 mL at a density to achieve 80% confluency by 48 hours and incubated over night at 37 °C and 5% CO2. Cells were treated at a confluency of around 50% with compounds at indicated final concentration by adding 2 μL per well of a 1000× compound DMSO stock-solution. Cells were incubated for 20 hours at 37 °C and 5% CO2. Then, cells were lysed in RIPA buffer (Pierce™ RIPA Buffer, FisherScientific, #89900) supplemented with 1× cOmplete™ Mini Protease Inhibitor Cocktail (Roche, #11836153001) and 1 mM Sodium Orthovanadate (Na3VO3, FisherScientific, #J60191) and lysates were subjected to standard western blotting procedure. Protein concentration of the samples was determined by BCA assay and samples were normalized to achieve equal protein concentration. 4× Laemmli Sample Buffer (Bio-Rad, #1610747) was supplemented with 200 μM DTT (Sigma Aldrich-Merck, #D9779) and added to the samples to achieve a final concentration of 1× Laemmli/50 μM DTT by diluting lysate samples with supplemented Laemmli buffer 1:4. Samples were then incubated at 95 °C for 5 min in a Thermomixer (Eppendorf). SDS-PAGE was performed in 1× Tris/Glycine/SDS buffer (TGS, Bio-Rad, #1610772) using 4-15% gradient polyacrylamide gels (4-15% Mini-PROTEAN® TGX Stain-Free™ Gel, Bio-Rad, #456-8084). Proteins were transferred onto 0.2 μm PVDF membranes using the semi-dry Trans-Blot® Turbo™ transfer system (Trans-Blot® Turbo™, Bio-Rad, #170-4150) with prepacked Trans-Blot® Turbo™ transfer packs (Bio-Rad, #170-4156). Immunodetection of AMPK, pAMPK (Thr172), and β-Actin was performed using the following primary antibodies: AMPKα (F6) Mouse mAb (Cell Signaling Technologies, #2793) for AMPK, Phospho-AMPKα (Thr172) (40H9) Rabbit mAb (Cell Signaling Technologies, #2535) for pAMPK (Thr172), and Purified anti-β-actin Antibody (Rat monoclonal, W16197A) (Cell Signaling Technologies, #664802) for β-Actin. HRP-linked secondary antibodies in 5% nonfat dried milk (AppliChem, #A0830) in 1×TBS containing 0.1% Tween-20 were used for the corresponding species mouse, rabbit and rat (Cell Signaling Technologies, #7076, #7074, #7077), respectively. Signals were developed with chemiluminescence substrate (SuperSignal™ West Pico PLUS, Fisher Scientific, #34577) and detected with the ChemiDoc™ MP imaging system (ChemiDoc™ MP, Bio-Rad, #12003154). Chemiluminescence signals of phosphorylation, total protein and loading control were quantified by densitometry using the image analysis software Image Lab™ (version 6.0.1, Bio-Rad). The corresponding lysates from DMSO treated cells were included on each membrane as the base line control for blot-internal signal normalization. The standard deviation of signal intensities of the loading control-Actin within each blot was 16% or lower confirming equal loading of protein amounts.
For each condition, the ratio of phosphorylation to corresponding total protein was calculated from the signal intensities. The ratios were then normalized to the corresponding ratio of the DMSO control to yield the fold-change values of phosphorylation.
In the following embodiments, a compound is considered as an AMPK activator if the fold-change value of phosphorylation is 1.5 or higher, preferably 2.0 or higher, and more preferably 2.5 or higher as determined with the method described above.

| Compound | Fold-change AMPK activation |
| --- | --- |
| COC1CCC(c2ccc(Oc3ccc(C(=O)N4CCN(Cc5cnc6ccccc6c5)CC4)nc3)c(CO)c2)CC1 (stereo not drawn) | ≥2.5 |
| O=C(c1ccc(Oc2ccc(C3CCC4(CC3)SCCCS4)cc2CO)cn1)N1CCN(Cc2ccc(Cl)cc2)CC1 | ≥2.5 |
| COC1CCC(c2ccc(Oc3ccc(C(=O)N4CCN(Cc5ccc(Cl)cn5)CC4)cc3)c(CO)c2)CC1 (stereo not drawn) | ≥2.5 |
| COc1ccc(CN2CCN(C(=O)c3ccc(Oc4ccc(C5CCC(OC)CC5)cc4)cc3)CC2)cc1 (stereo not drawn) | ≥2.5 |
| COC1CCC(c2ccc(Oc3ccc(C(=O)N4CCN(Cc5ccc(C(F)(F)F)cc5)CC4)nc3)c(CO)c2)CC1 (stereo not drawn) | ≥2.5 |
| O=C(c1ccc(Oc2ccc(C3CCCCC3)cc2CO)cc1)N1CCN(Cc2ccc(OC(F)(F)F)cc2)CC1 | ≥2.5 |
| COc1cc(C2CCC(OC)CC2)ccc1Oc1ccc(C(=O)N2CCN(Cc3ccc(Cl)cc3)CC2)cc1 (stereo not drawn) | ≥2.5 |
| O=Cc1cc(C2CCC3(CC2)SCCCS3)ccc1Oc1ccc(C(=O)N2CCN(Cc3ccc(Cl)cc3)CC2)nc1 | ≥2.5 |
| COc1ccc(CN2CCN(C(=O)c3ccc(Oc4ccc(C5CCC(OC)CC5)cc4O)cn3)CC2)cc1 (stereo not drawn) | ≥2.5 |
